Experimental findings from ChEMBL document CHEMBL4602613, “Early identification of promiscuous attributes of aldose reductase inhibitors using a DMSO-perturbation assay” (Bioorg Med Chem Lett, 2020) are described below.

For experiment [1], the target named is T1, Aldo-keto reductase family 1 member B1 (Homo sapiens, UniProt P15121). Briefly: Inhibition of human recombinant AKR1B1 assessed as D,L-glyceraldehyde reduction pretreated with 0.3M DMSO followed by compound addition by DMSO-perturbation assay.
Experiment [2] has as its target T1, Aldo-keto reductase family 1 member B1. Briefly: Inhibition of human recombinant AKR1B1 assessed as D,L-glyceraldehyde reduction pretreated with 0.7M DMSO followed by compound addition by DMSO-perturbation assay.
For experiment [3] the target is unchanged.

By IC50 is commonly meant the concentration needed to halve the response being measured. For `O=C(O)Cc1nn(Cc2nc3cc(C(F)(F)F)ccc3s2)c(=O)c2ccccc12` [ZOPOLRESTAT], the IC50 in experiment [1] was found to be 37.8 nM; in experiment [2] it was 42.8 nM; in experiment [3] it was 52.9 nM.
